Binding of CDR-mutated scFvs to a peptide of the spike HR2 region

The target is the same throughout: PDVDLGDISGINAS, from the HR2 region of SARS-CoV-2 spike.

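The starting antibody came from a phage panning campaign against this peptide. The variants were designed computationally from a first round of random CDR variants and then made and measured. Several design methods are mixed in this list. The assay is AlphaSeq: two haploid yeast populations carry antibody and antigen on their surface. Mating (16 h, 30 °C) was followed by selection of diploids and sequencing of their barcodes. A regression on co-assayed BCL2-family reference pairs converts the normalised counts of each replicate to an apparent Kd. The assay was run in six technical replicates.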

Each scFv is VH, three GGGGS repeats, VL, as in the parent Ab-14, and differs from it in the CDRs of the heavy chain only.
VH: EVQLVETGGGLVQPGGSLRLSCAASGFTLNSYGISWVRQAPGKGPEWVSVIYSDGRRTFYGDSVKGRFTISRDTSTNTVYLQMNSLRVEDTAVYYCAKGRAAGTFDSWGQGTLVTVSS
VL: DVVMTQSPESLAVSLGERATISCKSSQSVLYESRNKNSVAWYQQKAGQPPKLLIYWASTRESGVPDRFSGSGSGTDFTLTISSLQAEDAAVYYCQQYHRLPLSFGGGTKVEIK

Substitutions are numbered in sequence along the VH above, starting at 1 (not Kabat).
This list holds designs with at most six substitutions.
Values are apparent Kd, the geometric mean of the replicates that gave a signal; lower means stronger binding.
"nd" means that the variant was in the library but no mating with the target was seen in any replicate; the authors take this as a sign of poor binding, and no number exists.
Empty control strains, which show no peptide, gave a signal in 1% of pairings with all heavy chain designs; the median was 120 nM and 95% of these signals were weaker than 7.0 nM. No background was subtracted.
The authors' rule: three or more of the six replicates give a measured affinity, fewer mean a poor binder.
The parent sequence was in this pool as ten entries: three were never detected, three once, and four in most replicates, with averages from 2.2 nM to 240 nM.
A sequence measured in both rounds can read differently, since the two assays cover different ranges.

With R56M T104G the result was nd (0 of 6 replicates).
With S53A A101V S107M the result was 2.0 nM (6 of 6 replicates).
With T28D S35C S53V T104W D106N the result was nd (0 of 6 replicates).
With T28E S31N A101E S107T the result was 860 pM (6 of 6 replicates).
With S31E R56V the result was 3.0 nM (6 of 6 replicates).
With G26P G61S R100E the result was 63 nM (5 of 6 replicates).
With G26H T28S G61A R100Q A101T the result was 2.6 nM (6 of 6 replicates).
With T28N R56M D62N T104D F105T the result was nd (0 of 6 replicates).
With L29I G61K S63N K65R the result was nd (0 of 6 replicates).
With I51L T58C the result was nd (0 of 6 replicates).
With R100E A101T the result was 2.3 nM (6 of 6 replicates).
With F27N S31D F59A G61I the result was 2.1 nM (6 of 6 replicates).
With T28D G61F A101T the result was nd (0 of 6 replicates).
With T28E R100M A101T S107T the result was 990 pM (6 of 6 replicates).
With T28D G61A S63H A101T the result was 14 nM (6 of 6 replicates).
With S53D G61D R100Q A101L the result was nd (0 of 6 replicates).
With S31E G61M A101N the result was 2.2 nM (6 of 6 replicates).
With T28D F59R A102L T104W D106N the result was nd (0 of 6 replicates).
With T28H S31D G61I A101V the result was 18 nM (5 of 6 replicates).
With G26H S53A R100K the result was 710 pM (6 of 6 replicates).
With S31E A101T S107W the result was 56 nM (3 of 6 replicates).
With F27Q T28N I34R the result was nd (0 of 6 replicates).
With S53A G61I D62V S63A the result was nd (0 of 6 replicates).
With T28G G33R S53A F105N D106K the result was nd (0 of 6 replicates).
With L29N S31D the result was nd (0 of 6 replicates).
With T28G S31E G61H T104F the result was 91 nM (1 of 6 replicates).
With T28N G61I S63D R100Q the result was 20 nM (6 of 6 replicates).
With N30H G61D R100Q A101L the result was 260 nM (5 of 6 replicates).
With N30E S31D F59S F105K the result was nd (0 of 6 replicates).
With T28N G61V R100W A101T the result was 27 nM (5 of 6 replicates).
With R56E G99L the result was nd (0 of 6 replicates).
With T28V S31E the result was nd (0 of 6 replicates).
With S31E F59S G61S the result was 1.1 nM (6 of 6 replicates).
With T28W S31E G61H R100K the result was 7.3 nM (5 of 6 replicates).
With S53R R56F F59A G61S S63R the result was nd (0 of 6 replicates).
With G26S T28D G61A R100Q A101T the result was 760 pM (5 of 6 replicates).
With T28C R100L G103Q S107N the result was nd (0 of 6 replicates).
With T28E R100S A101T S107D the result was 2.7 nM (6 of 6 replicates).
With G26T G99H G103S T104M the result was nd (0 of 6 replicates).
With T28M K65R G103V the result was nd (0 of 6 replicates).
With T28D S31E G61Y A101T the result was 1.3 nM (1 of 6 replicates).
With T28D G61S R100Q A101E the result was 280 pM (6 of 6 replicates).
With T28S S63N R100Q S107A the result was 5.8 nM (5 of 6 replicates).
With T28E G61V A101N the result was 39 nM (2 of 6 replicates).

The opening 3 entries, copied out:

For R56M T104G, the assay gave nd (0 of 6 replicates).
For S53A A101V S107M, the assay gave 2.0 nM (6 of 6 replicates).
For T28D S35C S53V T104W D106N, the assay gave nd (0 of 6 replicates).

The measurements come from Li et al. 2023 (doi:10.1038/s41467-023-39022-2) through the FLAb antibody collection.